Results as given in patent US20080219962A1, “Method to Enhance the Bone Formation Activity of Bmp by Runx2 Acetylation” (BIORUNX CO., LTD., priority 2005, published 2008).

What was measured:
Assay type in all cases: cell-based
[1] = test system: Runx2; experiment: Runx2 acetylation: immunoprecipitation with anti-acetyl-lysine antibody, Western blot with anti-myc antibody; details: C2C12 cells transfected with myc-tagged Runx2, presence or absence of BMP-2 and p300; FIG. 5
Description: Following transfection, the C2C12 and 293 cells were lysed in ice-cold cell lysis buffer (25 mM HEPES (pH 7.5), 150 mM NaCl, 1% NP-40, 0.25% Na deoxycholate, 10% glycerol, 25 mM NaF, 1 mM EDTA, 1 mM Na3VO4, 250 μM phenylmethylsulfonyl fluoride, 10 μg/ml leupeptin, 10 μg/ml aprotinin) and cleared by centrifugation. The resulting supernatants were immunoprecipitated with the appropriate primary and secondary antibodies, and protein A- or protein G-Sepharose beads (Amersham) for 4 hours. All incubations were conducted at 4° C. The Sepharose beads were washed extensively and bound proteins were separated using SDS-PAGE, and then transferred to PVDF membranes. The membranes were incubated with the appropriate antibodies, washed, and then incubated with horseradish peroxidase-coupled secondary antibodies. After washing, the reactive proteins were visualized with an enhanced chemiluminescence (ECL) reagent (Amersham Biosciences).
For HDAC inhibitor treatments, both C2C12 and 293 cells were cultured in fresh medium for 1 day following transfection, and then treated with the inhibitors (Tricostatin A (TSA), CHAP and SCOP) for 16 h, at the specified concentrations according to the methods of Komatsu et al (Cancer Res. 61:4459-4466, 2001) and Nishino et al (Nishino N. et al., Org. Lett. 5: 5079-5082, 2003). […]

[2] = test system: Runx2; experiment: Western blot of myc-tagged Runx2 protein level in C2C12 cells with or without BMP-2; details: C2C12 cells transfected with myc-tagged Runx2, 300 ng/l BMP-2; FIG. 1
Description: (§1) After confirming that Runx2 is a major target of BMP-2 signaling pathway and BMP-2 regulates transcription level of Runx2 (Lee K. S et al. Mol. Cell. Biol. 20:8783-879, 2000), the present inventors investigated whether BMP-2 regulates post-transcription level of Runx2 as well. Particularly, C2C12 pluripotent mesenchymal precursor cells were transfected with myc-tagged Runx2 in the presence or absence of 300 ng/l of BMP-2, followed by Western blotting using anti-myc antibody. As a result, the level of Runx2 protein was much higher in BMP-2 treated cells (FIG. 1). The result was confirmed by co-expression of HA-tagged Runx2 and increasing amount of BMP receptor 1 (BMPR1) of 0, 0.25, 0.5, 1 and 2 μg. That is, the level of Runx2 increases with proportion to the amount of BMPR1 (FIG. 2). […] To eliminate the possibility of BMP-2 mediated transcriptional activity of the transfected Runx2 gene, the present inventors measured the level of Runx2 by BMP-2 transcriptional activity using quantitative RT-PCR. […] To quantify endogenous Runx2 level, primers represented by SEQ. […] Following quantitative RT-PCR, PCR products were collected (1/20 of reaction mixture) from several reaction cycles (from 25 to 30), and fragments were separated using agarose gel electrophoresis.

[3] = test system: Runx2 mRNA; experiment: Semi-quantitative RT-PCR of endogenous and exogenous Runx2 mRNA in 293 cells; details: FIG. 4
Description: as §1

B1: BMP-2: bone morphogenetic protein-2, bone formation factor added to cells (protein, UniProt P12643 283-396, looked up)
Bone morphogenetic protein 2: QAKHKQRKRLKSSCKRHPLYVDFSDVGWNDWIVAPPGYHAFYCHGECPFPLADHLNSTNHAIVQTLVNSVNSKIPKACCVPTELSAISMLYLDENEKVVLKNYQDMVVEGCGCR
Runx2 acetylation [1]: acetylated
level of Runx2 protein [2]: much higher
endogenous Runx2 mRNA level [3]: increased
exogenous Runx2 mRNA level [3]: not changed
